Experiment [1] concerns the target human TSLP antigen tagged with Flag (hTSLP-Flag) (human) (UniProt Q969D9). The experiment can be described thus: cell-based or functional assay.
Experiment [2] shares this target. The experiment can be described thus: SPR, Biacore T200, antibody captured on Protein A chip, hTSLP-Flag as analyte. A general note: SPR reads the build-up and loss of mass on a sensor chip optically.
The target of the next experiment is TSLP-flag-Biotin (human) (UniProt Q969D9). The experiment can be described thus: competition ELISA by the method of Example 5: blocks TSLP-flag-Biotin binding to coated TSLPR-ECD-hFc. On the technique in general: In an ELISA, binding on a coated surface is turned into a signal by an enzyme label.

“And” between values parts separate entries of the source, which are not always exact repeats. Equal entries are not always repeated.

In the case of reference antibody Tezepelumab, in experiment [1], the IC50 of inhibition of TSLP-dependent STAT5 activation (luciferase, IL-7R/TSLPR-BaF3-Luc (STAT5) cells, TSLP-flag stimulus) was 0.958 µg/mL and 0.854 µg/mL. In experiment [2], the Kd (usually the constant that tells how readily two partners part at equilibrium) was determined as 13.1 pM; the koff (commonly the rate constant with which the complex falls apart) stood at 4.36e-05 s⁻¹; the kon (as a rule, the second-order rate constant of association) amounted to 3.34e+06 M⁻¹ s⁻¹. Moreover, in the experiment with TSLP-flag-Biotin (human), the IC50 (usually the concentration that gives 50% inhibition) was 0.109 µg/mL.

The values above are taken from patent publication US20240262904A1 (SHANGHAI MABGEEK BIOTECH, published 2024).
